esBAF inh – inhibitors of esBAF chromatin remodeling in mouse ES cells; reporter increase, % at 12.5 µM; Bmi1-luciferase knock-in reporter, 24 h; 100% = twice the neutral-well signal; 350,000 compounds, 2% hits; AID 602393; in the data active = activation above about 40%; inconclusive = no clear call, values can overlap the other calls;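 also: 0% = median of the plate's neutral control wells and 100% = double that signal; a rise in the Bmi1 reporter signal indicates esBAF inhibition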
MITF TRPM1 HTS – activators of MITF-driven TRPM1 promoter activity in SK-MEL-5 cells; SK-MEL-5 TRPM1-promoter luciferase, 24 h; % of positive control, neutral wells = 0; activation, % at 12.5 µM; 300,000 compounds, 0.75% hits;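 active = mean activation of at least 80% with every replicate also reaching 80%; inconclusive = mean reaches 80% but some replicate falls short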;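 also: 0% = neutral control wells and 100% = parthenolide positive control wells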
Yeast UUG start – modulators of yeast start codon fidelity, primary screen, whole organism, S. cerevisiae, single point, plate reader; S. cerevisiae UUG-firefly luciferase reporter, luminescence/redox ratio; activity score, % at 18.7 µM; actives 0.13% (n = 350,000);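 active means replicate mean at a twofold rise or more, about +100% in these data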;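 further: firefly luciferase made from a UUG start codon reports start codon fidelity; reporter light over untreated wells divided by growth signal over untreated wells; some hits fall short of that in this replicate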
PglD inh – blocks C. jejuni PglD acetyltransferase activity; purified PglD enzyme, DTNB colorimetric CoA detection; inhibition, % at 12.5 µM; 360,000 compounds, 0.098% hits; in the data active = inhibition above about 16%, passing the limit was not always enough; inconclusive = no clear call, values can overlap the other calls
Wnt act – activators of Wnt/beta-catenin signaling. Wnt/beta-catenin reporter cell assay, activator, plate reader. activation, % at 9.35 µM. 300,000 compounds, 1.2% hits; in the data active = activation above about 30%, passing the limit was not always enough; inconclusive = no clear call, values can overlap the other calls;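 also: 0% = neutral control wells and 100% = positive control wells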
miR-122 sensor – miR-122 inhibition in Huh7 cells. Huh7 miR-122 Renilla luciferase sensor, 48 h; neutral wells = 0, positive control = 100. 340,000 compounds, 0.3% hits. activation (reporter increase), % at 12.5 µM. AID 602342;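 active = mean replicate activation score at least 90 and every replicate individually at or above 90; inconclusive = only one of the two criteria met; inactive = neither criterion met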;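 also: higher luciferase means less miR-122 activity so hits act as miR-122 inhibitors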
The depositor's hits bear a star; [ ] = another dose, or the depositor's remark. In the library only some 2.8% were active in any assay of this set; here they are far more common.

Screening CO[C@H]1CN(C)C(=O)c2ccc(NC(=O)Nc3ccc(Cl)cc3)cc2OC[C@H](C)NC[C@@H]1C returned esBAF inh 16.8 and miR-122 sensor 4.8[16.7 µM].
For CCc1nnc(NS(=O)(=O)c2ccc(N)cc2)s1 the results were esBAF inh -6.5, MITF TRPM1 HTS 10.1, Yeast UUG start -10.1, PglD inh 2.2, Wnt act 79.0* and miR-122 sensor 2.3.
CCc1nnc(NC(=O)c2ccc(NS(=O)(=O)c3ccccc3)cc2)s1 was read as esBAF inh -3.6, Yeast UUG start -10.4, PglD inh 3.5, Wnt act 8.4 and miR-122 sensor 211.6*.
CCc1nnc(NS(=O)(=O)c2ccc(NC(=O)c3cccc(Cl)c3)cc2)s1 was read as esBAF inh -12.1, MITF TRPM1 HTS 109.5*, Wnt act -1.4 and miR-122 sensor 6.1.
C[C@@H]1CN([C@@H](C)CO)C(=O)Cc2cc(NC(=O)C3CCCCC3)ccc2O[C@@H]1CN(C)S(=O)(=O)c1cn(C)cn1 was read as esBAF inh -3.6, Yeast UUG start -2.7, PglD inh -2.0 and miR-122 sensor -0.8[16.7 µM].
For CCCS/C(N)=N/N=C/c1cc(C)ccc1O the results were MITF TRPM1 HTS 123.0* and miR-122 sensor 1.7.
Screening CCCCS/C(N)=N/N=C/c1ccccc1O returned MITF TRPM1 HTS 68.8 and miR-122 sensor -6.0.
For COC(=O)c1cc(NC(=O)c2ccc(C)cc2)c(=O)oc1C the results were esBAF inh 45.4*, MITF TRPM1 HTS 9.2, Yeast UUG start -15.8, PglD inh 3.2, Wnt act 1.6 and miR-122 sensor -1.6.
C[C@@H]1CN([C@H](C)CO)C(=O)c2cc(C#C[C@@H](C)O)cnc2O[C@@H]1CN(C)C(=O)Cc1ccncc1 was read as esBAF inh 1.3, PglD inh -1.8 and miR-122 sensor -8.0[16.7 µM].
For COc1ccc(/C=N/Nc2nccnc2Cl)c(OC)c1 the results were MITF TRPM1 HTS 87.8*.

Arranged by length of the SMILES (rising): 3 of the compounds above
Screening CCCCS/C(N)=N/N=C/c1ccccc1O returned MITF TRPM1 HTS 68.8 and miR-122 sensor -6.0.
For CCCS/C(N)=N/N=C/c1cc(C)ccc1O the results were MITF TRPM1 HTS 123.0* and miR-122 sensor 1.7.
For COC(=O)c1cc(NC(=O)c2ccc(C)cc2)c(=O)oc1C the results were esBAF inh 45.4*, MITF TRPM1 HTS 9.2, Yeast UUG start -15.8, PglD inh 3.2, Wnt act 1.6 and miR-122 sensor -1.6.

Following part.
Screening COc1ccc(/C=N/Nc2nccnc2Cl)cc1 returned esBAF inh -50.1, MITF TRPM1 HTS 0.9, Yeast UUG start -45.2 and PglD inh -5.1.
Screening COc1ccc(C2=NN(C(=O)c3ccccc3)C(c3cccc([N+](=O)[O-])c3)C2)cc1 (stereo unspecified) returned MITF TRPM1 HTS 9.0 and Wnt act 28.1.
Screening CCOC(=O)/C=C(/C)N1N=C(c2ccc(OC)cc2)CC1c1cccc([N+](=O)[O-])c1 (stereo unspecified) returned esBAF inh 55.2*, MITF TRPM1 HTS -2.9, Yeast UUG start -14.7, PglD inh 0.3, Wnt act 26.3 and miR-122 sensor 11.5.
For COc1ccc(C#Cc2cnc3c(c2)C(=O)N([C@H](C)CO)C[C@H](C)[C@H](CN(C)S(=O)(=O)c2cccc(F)c2)O3)cc1OC the results were esBAF inh -2.0, Yeast UUG start -1.9, PglD inh 1.9 and miR-122 sensor -13.3[16.7 µM].
Cc1ccc(S(=O)(=O)Nc2ccc3c(c2)CC(=O)N([C@@H](C)CO)C[C@H](C)[C@@H](CN(C)C(=O)NC2CCCCC2)O3)cc1 was read as esBAF inh -1.9, Yeast UUG start 5.2, PglD inh -0.8 and miR-122 sensor -6.9[16.7 µM].
`COc1cccc(/C=N/NC(=O)c2ccoc2C)c1` gave Yeast UUG start -21.1, PglD inh -5.4, Wnt act 39.6* and miR-122 sensor 13.8.
Screening COc1cc(/C=C(\C#N)C(=O)Nc2cccc(C(=O)O)c2)ccc1OCc1ccc(C)cc1 returned MITF TRPM1 HTS 91.1*, Yeast UUG start 7.1, PglD inh 0.5, Wnt act 24.7 and miR-122 sensor -1.8.
COc1ccc(/C=N/NC(=O)c2cccc([N+](=O)[O-])c2)cc1O was read as MITF TRPM1 HTS 0.3 and Wnt act 19.5.
For COc1cc(/C=C(/C#N)C(=O)Nc2ccccc2)ccc1OCc1ccc(C(=O)O)cc1 the results were esBAF inh 13.1, MITF TRPM1 HTS 9.9, Wnt act 12.3 and miR-122 sensor -20.4.
`COc1cc(/C=N/NC(=O)c2cccc([N+](=O)[O-])c2)ccc1OCc1ccc(C)cc1` gave esBAF inh 56.4*, MITF TRPM1 HTS 69.0, Yeast UUG start -21.8, PglD inh -3.7, Wnt act inconclusive and miR-122 sensor -10.0.
